Data: patent US10017527B2, “KLK4 inhibitors” (Universiteit Antwerpen, priority 2014, dated 2018)

Biological target: T1, Thrombine (human plasma) (Homo sapiens, UniProt P00734)
T1 construct: purchased Sigma-Aldrich; host or cells: human plasma
Assay: Thrombin inhibition, chromogenic substrate Biophen CS-21(66)
Format: biochemical

Structure (SMILES): CCCCCCOC(=O)NC(c1ccc(NC(=N)N)cc1)P(=O)(Oc1ccccc1)Oc1ccccc1 (stereo not shown) [Compound 92, Hexyl ((diphenoxyphosphoryl)(4-guanidinophenyl)methyl)carbamate]
- IC50: > 250 µM
